Data taken from article PMC11237553, “De novo synthetic antimicrobial peptide design with a recurrent neural network” (Protein Science : A Publication of the Protein Society, 2024).

What was measured:
[1] = tested on: Porcine red blood cells (RBCs); test: Hemolysis assay; type: cell-based, pig; conditions: 1% porcine RBC in RPMI, 37°C for 30–45 min, absorbance 415 nm, test range 128 down to 1 μg/mL, Triton‐X100 = 100%; range in three independent experiments in duplicate, one maximum and one minimum data point dropped
[2] = tested on: Staphylococcus aureus ATCC 29213; test: Broth microdilution antimicrobial susceptibility testing (MIC/MBC); type: cell-based; conditions: one maximum and one minimum data point dropped; for MIC, S. aureus ATCC 29213: broth microdilution (CLSI, adapted for cationic AMPs), Mueller‐Hinton Broth, 5 ± 3 × 10^5 CFU/mL, 20–24 h at 37°C, test range 128 down to 0.25 μg/mL, lowest effective concentration range in three independent experiments in duplicate; for MBC, S. aureus ATCC 29213: concentration killing 99.9% of the inoculum, plated from MIC wells, 24 h at 37°C, range in three independent experiments in duplicate
Method: (§1) Bacteria from frozen stocks were streaked onto non‐selective Columbia blood agar with 5% sheep blood (Oxoid) and incubated for 18–24 h at 37°C. The following day, 2–4 colonies were streaked onto a new agar plate and incubated for 18–24 h at 37°C to ensure uniform colony health prior to the assay. A standardized bacterial inoculum was prepared by suspending isolated colonies in Mueller‐Hinton Broth (MHB; Sigma‐Aldrich, St. Louis, MO, USA). The suspension was adjusted to an optical density of 0.08–0.1 at 600 nm, equivalent to a 0.5 McFarland standard of approximately 1–2 × 10^8 CFU/mL (CFU: colony forming units). The inoculum was then diluted 1:250 to achieve a final concentration of 5 ± 3 × 10^5 CFU/mL. The target bacterial density was confirmed by examining the total viability counts from the final inoculum.
(§2) Candidate AMPs were purchased from and synthesized by GenScript (Piscataway, NJ, USA). These were received in lyophilized format and stored at −20°C, and were suspended in sterile ultrapure water prior to testing.

[3] = tested on: Escherichia coli ATCC 25922; test: as above; type: cell-based; conditions: one maximum and one minimum data point dropped; for MIC, E. coli ATCC 25922: broth microdilution (CLSI, adapted for cationic AMPs), Mueller‐Hinton Broth, 5 ± 3 × 10^5 CFU/mL, 20–24 h at 37°C, test range 128 down to 0.25 μg/mL, lowest effective concentration range in three independent experiments in duplicate; for MBC, E. coli ATCC 25922: concentration killing 99.9% of the inoculum, plated from MIC wells, 24 h at 37°C, range in three independent experiments in duplicate
Method: as §1, §2

Substance | HC50 (concentration that lyses 50% of the RBCs), porcine RBCs [1] [µg/mL] | MIC, S. aureus ATCC 29213 [2] [µg/mL] | MBC, S. aureus ATCC 29213 [2] [µg/mL] | MIC, E. coli ATCC 25922 [3] [µg/mL] | MBC, E. coli ATCC 25922 [3] [µg/mL]
YLPSVLPSVLKPL [DeNo1032] | > 128 | > 128 | > 128 | > 128 | > 128
DLLSCLKKKGKCVLKNL [DeNo1025] | > 128 | > 128 | > 128 | > 128 | > 128
MLPSIAGAAAKGLPKLFCKITKKC [DeNo1038] | > 128 | > 128 | > 128 |  | 
SLPSILSGIAGKL [DeNo1029] | > 128 | > 128 | > 128 | > 128 | > 128
MLPKIAGKIAKKL [DeNo1041] | > 128 | > 128 | > 128 | > 128 | > 128
KLPSIIKAAAKALPKLF [DeNo1034] | > 128 | > 128 | > 128 |  | 
RLPRIFRGIRGKL [DeNo1030] | > 128 | > 128 | > 128 | 128 | ≥ 128
ALPSIIKGLLKKL [DeNo1047] | > 128 | > 128 | > 128 | ≥ 128 | ≥ 128
KIFGKILKKLLKKLLKKLLKKL [DeNo1013] |  | > 128 | > 128 |  | 
FLPKIFKKIAKKL [DeNo1045] | > 128 | > 128 | > 128 |  | 
WLPKIAGKIAGKL [DeNo1043] | > 128 | > 128 | > 128 | > 128 | > 128
QLPKIAGKIAKKL [DeNo1054] | > 128 | > 128 | > 128 | > 128 | > 128
MLPKIAGAIAKLL [DeNo1042] | > 128 | > 128 | > 128 | > 128 | > 128
FLPKIAGKIAKKL [DeNo1058] | > 128 | > 128 | > 128 | > 128 | > 128
CLPSLLPSLFKKL [DeNo1028] | > 128 | > 128 | > 128 | > 128 | > 128
DLLKTLKKIAKKLLKTLLKKLLKKLLKKL [DeNo1023] | > 128 | > 128 | > 128 | 128 | 128
CLPSILCKITKKC [DeNo1044] | > 128 | > 128 | > 128 | ≥ 128 | ≥ 128

Substance | HC50 (concentration that lyses 50% of the RBCs), porcine RBCs [1] [µg/mL] | MIC, S. aureus ATCC 29213 [2] [µg/mL] | MBC, S. aureus ATCC 29213 [2] [µg/mL] | MIC, E. coli ATCC 25922 [3] [µg/mL] | MBC, E. coli ATCC 25922 [3] [µg/mL]
YLPSVLKGLLKKL [DeNo1052] | > 128 | > 128 | > 128 | ≥ 128 | ≥ 128
KLFGKILGKIAKKILGKILGALLSKLLSAL [DeNo1024] | > 128 | > 128 | > 128 | ≥ 128 | ≥ 128
LLPSLLKGLLKKL [DeNo1048] | > 128 | > 128 | > 128 | 128 | 128
TLPDVAKNVAKNVAKTVLDTLKCKITGKC [DeNo1020] | > 128 | > 128 | > 128 |  | 
CLPSILC [DeNo1037] | > 128 | > 128 | > 128 | > 128 | > 128
FLPKIAGKIAGKL [DeNo1050] | > 128 | > 128 | > 128 | > 128 | > 128
RLPSIIPGIAGKLGGLLGGLLKGL [DeNo1027] | > 128 | > 128 | > 128 |  | 
QLPRIAGKIAKKL [DeNo1035] | > 128 | > 128 | > 128 | > 128 | > 128
QLPSVLPAIAKAL [DeNo1036] | > 128 | > 128 | > 128 | > 128 | > 128
LLPSLLKGLAKKL [DeNo1053] | > 128 | > 128 | > 128 | > 128 | > 128
NLLDTLKNVAKNVAKNVLDTLKCKITCKC [DeNo1015] | > 128 | > 128 | > 128 | 128 | 128
FLPKIFKKIAKKI [DeNo1055] | > 128 | > 128 | > 128 | ≥ 128 | ≥ 128
PLPPIIPGLASGLLSGLC [DeNo1033] | > 128 | > 128 | > 128 | > 128 | > 128
FLPKIAGKAAKKLPKIFCKITKKC [DeNo1019] | > 128 | > 128 | > 128 |  | 
TKPKGTKPKGTKPKG [OT15, in‐house peptide [TKPKG]3, truncated from negative control peptide [TKPKG]4 (OT20); negative control, reference compound] | > 128 | > 128 | > 128 | > 128 | > 128
GLLSLLKKLLKKL [DeNo1056] | > 128 | > 128 | > 128 |  | 
